From PubChem BioAssay AID720519 (National Center for Advancing Translational Sciences (NCATS), 2013) come the findings set out here.

The entries are a selection whose mix differs from that of the whole data set. Inconclusive results are not listed. Active and inactive are the calls of the source. The call rests on the fitted dose curve; in most records, active means well fitted activation curve with a large enough effect; inconclusive means small, poorly fitted or top-dose-only effect; inactive means flat fitted curve, though single readings scatter.

The nature of this test: qHTS for Inhibitors of Cell Surface uPA Generation: Confirmatory Assay for Cherry-picked Compounds. Further: 0% is about no effect. Particulars: cell surface uPA activity generation, qHTS confirmation; at 115 µM (top of the series). The text has this: The overall objective of this project is to perform a quantitative high throughput screen (qHTS) to identify novel compounds that inhibit the generation of cell surface urokinase activity. The urokinase plasminogen activator (uPA) is one of the two primary endogenous systems that mediate plasminogen activation into plasmin. Members of this system, including uPA and its receptor (uPAR), are overexpressed in several malignant tumors. This system plays a major role in adhesion, migration, invasion and metastasis of cancer cells. Small molecule inhibitors of the uPA system will serve as probes to understand the molecular mechanisms of the uPA cascade and better understanding the micro-environmental circumstances that facilitate the activation of plasminogen by uPA, and finally may provide novel candidate agents for anticancer drug therapy.
[…] Activation of cell viability (increase in luminescence signal) due to inhibition of the cell surface uPA generation is the desired outcome of this assay. […]
Cultured RAW 264.7 were dispensed into 1536-well clear bottom, white walled tissue culture plates at a density of 4000 cells/well and were incubated overnight (12-16 h) at 37 C in a 5% CO2 incubator. […] Three microliter of PerkinElmer ATPlite was then added to each well and luminescence was detected using the PerkinElmer ViewLux plate reader for a 5 sec exposure.
A general note: In qHTS, concentration-response curves come from the screen itself.

Broadly, the inhibition is the drop in the measured response relative to a control, in per cent. Turning to `CCN(CC)CCCOC(=O)C(O)(c1ccccc1)c1ccccc1`, the inhibition was inactive: 6.02%.
